## OPERA 2.9 data: vapor pressure values

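These are experimental values that the OPERA curators gathered from public databases to train and test their QSAR models. The files give a single number for a compound and property, which may rest on several reports. Method, purity and exact conditions of the single measurements are not given. Where a salt, mixture or single isomer is drawn, the source does not say that exactly this form was tested. Some upstream entries may be estimates or bounds without being marked so.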

Vapor pressures (log10 mmHg) refer to near room temperature, 15 to 30 °C; higher is more volatile.

compound	vapor pressure (log10 mmHg)
C=CC(C)(CCC=C(C)C)OC(=O)C(C)C (stereo not given)	-1.46
Cl.N[C@@H](Cc1cnc[nH]1)C(=O)O.O	-4.736
c1cc(OCC2CO2)c2ccc(OCC3CO3)cc2c1 (stereo not given)	-6.244
CCCCC(CC)COCCO (stereo not given)	-1.678
FC(F)=C(F)OC(F)(F)C(F)(F)C(F)(F)OC(F)(F)F	2.051
NCCCN1CCOCC1	-1.064
CCC(C)NC1CCC(CC2CCC(NC(C)CC)CC2)CC1 (stereo not given)	-5.213
O=C(NC(=O)c1c(F)cccc1F)Nc1cc(C(F)(F)F)cc(C(F)(F)F)c1Cl	-7.693
O=C1CC[C@H](N2C(=O)c3ccccc3C2=O)C(=O)O1	-9.666
Sc1nnc(S)s1	-4.86
Brc1ccccc1Oc1ccccc1	-2.914
CCCC1CCC(C2CCC(c3ccc(OC)c(F)c3F)CC2)CC1 (stereo not given)	-7.256
CC(=O)c1ccc(Oc2ccc(Cl)cc2)cc1Cl	-5.625
O=C(CS)OCCOC(=O)CS	-2.422
CCC(N)CO (stereo not given)	-0.361
C[N+](C)(C)CCO.[Cl-]	-9.307
CCC(O)COC1CCCCC1C(C)(C)C (stereo not given)	-1.333
O=C(O)C1(C(=O)Nc2ccc(Cl)cc2Cl)CC1	-7.201
Nc1ccc(NCCO)c([N+](=O)[O-])c1	-8.78
CCC(=O)OCCc1ccccc1	-1.289
CC(C)(C)c1cc(O)c(C(C)(C)C)cc1O	-4.326
CCC(C)(C)c1ccccc1O	-1.426
CS(=O)(=O)c1ccc(CNc2ncccc2Br)c(C(F)(F)F)c1	-9.403
C[N+](C)(C)CCOP(=O)([O-])OC[C@H](O)CO	-10.06
OCc1ccc(Br)cc1	-3.073
CC/C=C\CCOC(=O)C1CC1	-1.292
C[C@H](N)C(=O)N[C@@H](CCC(N)=O)C(=O)O	-6.914
CCC(C)c1cc(C(C)CC)c(O)c(C(C)CC)c1 (stereo not given)	-3.236
CCOC(=O)C1C(C)=CC(=O)CC1(C)C (stereo not given)	-2.824
O=C(O)CCCCC(S)CCS (stereo not given)	-7.129
O=C1CSC(=O)N1	-5.722
CCN1CCNCC1	0.309
CC(=O)OCC=Cc1ccccc1	-0.862
CCCCCCOC(=O)CCC	-0.516
CC1CCCCCCCCCCCCC(=O)C1 (stereo not given)	-3.628
C=CCCCCCCCCCCCCCCCCCCCC	-4.064

Again, the 2 entries with the lowest vapor pressure:

compound	vapor pressure (log10 mmHg)
C[N+](C)(C)CCOP(=O)([O-])OC[C@H](O)CO	-10.06
O=C1CC[C@H](N2C(=O)c3ccccc3C2=O)C(=O)O1	-9.666

From the experimental data distributed with OPERA 2.9.